{"source": "patent US4416899A", "about": "“Antibiotic BMG162-aF2, a process for production thereof, and antitumor drug containing said new antibiotic as active ingredient” (priority 1980, dated 1983)", "system": "mouse leukemia L1210", "experiment": "Effect on mouse leukemia L1210 (ip-ip system)", "conditions": "hydrochloride", "data": [{"smiles": "N=C(N)NCCCCC(O)CC(=O)NC(O)C(=O)NCCCCNCCCN", "note": "(stereo not shown) [BMG162-aF2]", "values": [{"measurement": "effect on mouse leukemia L1210", "value": "a curative effect and an effect of elongation of survival period"}]}]}
